# Experimental data reported in publication PMC12214610.
# Sequences of proteins named here, by UniProt entry; tags and fusion partners are left off. A change or cut given only in a name is not applied to a line headed by its entry.
# UniProt Q9BVK6: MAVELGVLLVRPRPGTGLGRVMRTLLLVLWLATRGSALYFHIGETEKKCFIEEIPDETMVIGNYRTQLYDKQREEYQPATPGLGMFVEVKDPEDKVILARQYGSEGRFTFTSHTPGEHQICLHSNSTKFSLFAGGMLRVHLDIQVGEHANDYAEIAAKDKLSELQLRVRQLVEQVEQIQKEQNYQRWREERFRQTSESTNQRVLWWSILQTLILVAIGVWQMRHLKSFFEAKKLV
# The list shows a part of the results.
# Molecular target: TMED9 (UniProt Q9BVK6)
# Settings: virion
substance,measurement,value
"TMED10, P49755",cross-linked residues,K140 - K160
